Patent US9604932B2 (priority 2013, dated 2017)
Where “and” joins values, the source holds several entries; their conditions need not be identical. Identical values can stand only once.

System: Cl2 inhalational lung injury (CILI) in mice
Experiment: Murine Cl2 exposure model (CILI), lung histology score
Conditions: for Effect on CILI (histology scores, FIG. 2): 2 and 6 hours post 60 minute Cl2 exposure; for Histology score, Mean: n=4
[1] = R-107 in olive oil 10 mg/kg/dose IP 2 and 6 hours post 60 minute Cl2 (400 ppm), 24 hours

Molecule	Effect on CILI (histology scores, FIG. 2) (R-100 in HPCD, 80 mg/kg/dose IP, 24 hours post exposure)	Effect on CILI (histology scores, FIG. 2) (R-107 in PEG-400, 100 mg/kg/dose IP, 24 hours post exposure)	Histology score, Mean (R-107 in oil 30 mg/kg/dose IP 2 and 6 hours post 60 minute Cl2 (400 ppm), 24 hours)	Histology score, Mean (R-107 in oil 80 mg/kg/dose IP 2 and 6 hours post 60 minute Cl2 (400 ppm), 24 hours)	Effect on CILI (histology scores), dose response (R-107 in oil 10, 30, 80 mg/kg/dose IP, 24 hours post exposure)	Histology score, individual mice [1]	Histology score, Mean [1]
3-nitratomethyl-2,2,5,5-tetramethylpyrrolidinyloxy	significantly attenuated CILI						
CC(=O)ON1C(C)(C)CC(CO[N+](=O)[O-])C1(C)C (stereo not shown) [R-107, 2,2,5,5-tetramethyl-3-(nitrooxymethyl)pyrrolidin-1-yl acetate]		significantly attenuated CILI	2.64	1.88	dose-responsively attenuated CILI	3.2 and 3.0 (2×) and 3.5	3.18
